# scFv variants of Ab-14 (heavy chain) against a SARS-CoV-2 spike peptide

All variants were tested on one target, the spike HR2 peptide PDVDLGDISGINAS (SARS-CoV-2).

Each scFv is VH, three GGGGS repeats, VL, as in the parent Ab-14, and differs from it in the CDRs of the heavy chain only.
VH: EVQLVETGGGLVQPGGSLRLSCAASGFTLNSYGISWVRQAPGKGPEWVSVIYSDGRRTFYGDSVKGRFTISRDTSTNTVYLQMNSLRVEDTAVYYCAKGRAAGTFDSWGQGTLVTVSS
VL: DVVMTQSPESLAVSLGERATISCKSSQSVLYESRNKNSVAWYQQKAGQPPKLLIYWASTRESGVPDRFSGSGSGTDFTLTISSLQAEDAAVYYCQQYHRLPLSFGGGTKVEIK

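Phage display of a naive human antibody library on the peptide gave the parent. These sequences belong to a second round, designed from the earlier measurements on random variants of the parent. Their group label is 14H_En_HC (En: ensemble of fine-tuned language models; HC: hill climbing; a sequence that several methods proposed may carry one label only). The scFvs were displayed on barcoded MATa yeast, the peptide on MATalpha yeast. Mating (16 h, 30 °C) was followed by selection of diploids and sequencing of their barcodes. Each replicate has its own calibration line, from reference interactions of the BCL2 family. Mating was done six times.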

Each variant is given by its three heavy chain CDRs, as the data file delimits them; those of the parent are GFTLNSYGIS, VIYSDGRRTFYGDSVK, GRAAGTFDS. Values are log10 of the apparent Kd in nM; lower means stronger binding. Where no diploid with the target was found in that replicate, the entry reads "ND": below detection, most likely a poor binder, though not proof of it. Values of this round are not directly comparable with the first-round values of the same sequences.

CDR-H1,CDR-H2,CDR-H3,"log10 Kd, replicates",empty controls
GFDLNEYGIS,VIYADGMRTFYSDSVK,GTVAGTFDS,-0.43 -0.65 -0.84 -0.53 -0.87 -0.67,0 of 18
GFDLNEYGIS,VIYADGRRTAYIDSVK,GEIAGTFNS,-0.28 -0.59 -0.80 -0.68 -0.63 -0.59,1 of 18 (2.23)
GFDLNEYGIS,VIYADGFRTFYTDSVK,GETAGTFDS,-0.43 -0.23 -0.46 -0.61 -0.92 -0.56,0 of 18
GFNLDEYGIS,VIYADGRRTFYADSVK,GSNGGTFDT,0.92 0.23 1.34 0.73 0.75 0.68,0 of 18
GFDLNEYGIS,VIYADGVRTQYIDSVK,GEAAGTFDS,-0.08 -0.22 -0.15 -0.01 -0.01 0.07,1 of 18 (4.28)
GFDLEEYGIS,VIYADGRRTFYSDSVK,GEIAGTFDS,-0.72 -0.74 -0.63 -0.80 -1.03 -0.29,0 of 18
GFDLNEYGIS,VIYADGRRTFYIDSVK,GEQAGTFNV,0.06 -0.47 -0.73 -0.47 -0.36 -0.54,0 of 18
GFTLDEYGIS,VIYADGRRTFYTDSVK,GNNAGTFDV,-0.32 -0.80 -0.93 -1.00 -0.79 -0.72,1 of 18 (1.91)
GFSLDEYGIS,VIYADGRRTFYADSVK,GNSAGTFDS,0.56 0.77 0.57 0.01 0.38 0.66,1 of 18 (3.55)
GFDLNEYGIS,VIYADGRRTFYADSVK,GNNAGTFLV,1.79 1.06 0.32 0.90 0.83 1.01,0 of 18
GFNLNEYGIS,VIYADGRRTFYTDDVK,GEFAGTFDV,0.09 -0.57 -0.08 -0.71 -0.16 0.01,0 of 18
GFDLNEYGIS,VIYADGRRTFYADSVK,GNIAGTFDQ,-0.37 -0.42 -0.89 -0.93 -0.83 -0.47,0 of 18
GFDLNEYGIS,VIYADGMRTFYADSVK,GKIAGTFNV,-0.33 -1.22 -1.19 -1.23 -1.15 -0.92,0 of 18
GFNLNEYGIS,VIYADGRRKFYADSVK,GETAGTFDS,-0.18 -0.52 -0.36 -0.50 -0.43 -0.18,1 of 18 (2.37)
GFDLNEYGIS,VIYADGRRSFYADSVK,GQVAGTFDV,-0.09 0.14 0.25 0.20 0.28 0.52,0 of 18
GFDLDEYGIS,VIYADGRRTFYSDNVK,GEAAGTFDI,-0.56 -0.74 -0.77 -1.24 -0.65 -0.68,0 of 18
GFDLEDYGIS,VIYADGRRTAYIDSVK,GEQAGTFDS,-0.66 -0.74 -0.68 -0.92 -0.76 -0.65,0 of 18
GFDLNEYGIS,VIYADGQRTFYADSVK,GNQAGTFDS,0.12 0.03 0.29 -0.09 0.70 0.41,0 of 18
GFDLNEYGIS,VIYADGRRTFYADSVK,GVNAGTFDS,0.20 0.02 -0.06 -0.57 -0.47 -0.10,0 of 18
GFNLNEYGIS,VIYADGKRTFYADSVK,GEIAGTFDV,-0.64 -0.46 -0.72 -0.75 -0.55 -0.31,0 of 18
GFDLNEYGIS,VIYADGVRTFYADSVK,GQLAGTFDS,-0.49 -0.40 -0.65 -0.71 -1.04 -0.72,1 of 18 (2.37)
GFDLNEYGIS,VIYADGKRTAYGDSVK,GTNAGTFDQ,-0.39 -0.01 0.38 -0.41 -0.37 -0.16,0 of 18
GFNLDEYGIS,VIYADGRRTFYADSVK,GETAGTFDV,-0.04 -0.41 -0.81 -0.53 -0.40 -0.40,0 of 18
GFDLNEYGIS,VIYADGMRTAYLDSVK,GEAAGTFDS,ND ND ND ND ND ND,0 of 18
GFDLEEYGIS,VIYADGRRTFYSDSVK,GEVAGTFDV,-0.46 -0.53 -0.75 -0.85 -0.81 -0.72,0 of 18
GFDLNEYGIS,VIYADGVRTFYTDSVK,GQLAGTFDV,-0.19 -0.24 -0.42 -0.51 -0.57 -0.20,0 of 18
GFDLNEYGIS,VIYADGQRTAYADSVK,GHAAGTFDS,0.01 -0.18 0.13 -1.01 -0.83 -0.22,0 of 18
GFDLNEYGIS,VIYADGKRTFYADSVK,GKAAGTFDQ,-0.41 -0.20 -0.40 0.05 -0.77 0.08,1 of 18 (2.13)
GFDIDEYGIS,VIYADGRRTFYADSVK,GTNAGTFDA,ND ND ND ND ND ND,0 of 18
GFDLNEYGIS,VIYADGQRTFYTDSVK,GEFAGTFDQ,0.48 0.49 0.52 0.15 0.10 0.20,0 of 18
GFNLDEYGIS,VIYADGQRTFYADSVK,GEVAGTFDT,ND ND ND ND ND ND,0 of 18
GFDLNEYGIS,VIYADGRRTAYTDSVK,GEHAGIFDV,ND ND ND ND ND ND,0 of 18
GFQLDEYGIS,VIYADGRRTFYQDSVK,GEVAGTFDN,0.68 ND 0.36 0.11 0.43 -0.04,0 of 18
GFDLNEYGIS,VIYADGRRTSYADSVK,GQLAGTFDF,-0.28 -0.34 -0.43 -0.76 -0.88 -0.56,0 of 18
GFDLNEYGIS,VIYADGRRTFYSDDVK,GEVAGTFDL,-0.18 -0.35 -0.57 -0.52 -0.56 -0.34,0 of 18
GFDLNEYGIS,VIYADGRRTAYIDSVK,GNNAGTFDQ,-0.56 -0.47 -0.37 -1.00 -0.15 -0.85,0 of 18
GFDLNEYGIS,VIYADGVRTQYIDSVK,GEVAGTFDA,ND 0.14 1.52 -0.17 1.20 ND,0 of 18
GFDLNEYGIS,VIYADGRRTFYADSVK,GNTAGTFVS,0.03 -0.27 -0.23 -0.38 -0.15 -0.13,0 of 18
GFDLNEYGIS,VIYADGQRTFYTDSVK,GGNAGTFDV,-0.19 -0.26 -0.61 -0.33 -0.44 -0.17,2 of 18 (2.03)
GFDLNEYGIS,VIYADGKRTFYSDSVK,GENAGFFDV,1.71 2.85 ND ND 1.63 3.62,2 of 18 (2.83)

Again, the first 3 entries without any signal:

| CDR-H1 | CDR-H2 | CDR-H3 | log10 Kd, replicates | empty controls |
|---|---|---|---|---|
| GFDLNEYGIS | VIYADGMRTAYLDSVK | GEAAGTFDS | ND ND ND ND ND ND | 0 of 18 |
| GFDIDEYGIS | VIYADGRRTFYADSVK | GTNAGTFDA | ND ND ND ND ND ND | 0 of 18 |
| GFNLDEYGIS | VIYADGQRTFYADSVK | GEVAGTFDT | ND ND ND ND ND ND | 0 of 18 |

Empty control strains, which show no peptide, gave a signal in 1% of pairings with all heavy chain designs; the median was 2.08 and 95% of these signals were weaker than 0.84. No background was subtracted. The control count says in how many pairings with the empty strains this scFv gave a signal, with their mean in brackets. In the paper, a design with two or fewer of six values counts as a poor binder.

Data: MIT Lincoln Laboratory AlphaSeq set, Li et al. 2023, doi:10.1038/s41467-023-39022-2, as distributed in FLAb.